System: Thromboxane-A synthase (Oryctolagus cuniculus)
Test: Tested in vitro against rabbit thromboxane A2 synthetase (TXA2) at 1 uM

inhibition: 55%
Compound: Cn1nc(-c2cncs2)c2ccccc2c1=O

From ChEMBL document CHEMBL1126557, “Novel antiasthmatic agents with dual activities of thromboxane A2 synthetase inhibition and bronchodilation. 2. 4-(3-Pyridyl)-1(2H)-phthalazinones” (J Med Chem, 1993)
